Results from ChEMBL document CHEMBL3797098, “An in Vitro and in Vivo Investigation of Bivalent Ligands That Display Preferential Binding and Functional Activity for Different Melanocortin Receptor Homodimers” (J Med Chem, 2016).

Chains of the proteins cited; added tags and fusions are not shown. Lines headed by an entry give the natural chain unless they say otherwise; changes in a name come on top.
UniProt P41149: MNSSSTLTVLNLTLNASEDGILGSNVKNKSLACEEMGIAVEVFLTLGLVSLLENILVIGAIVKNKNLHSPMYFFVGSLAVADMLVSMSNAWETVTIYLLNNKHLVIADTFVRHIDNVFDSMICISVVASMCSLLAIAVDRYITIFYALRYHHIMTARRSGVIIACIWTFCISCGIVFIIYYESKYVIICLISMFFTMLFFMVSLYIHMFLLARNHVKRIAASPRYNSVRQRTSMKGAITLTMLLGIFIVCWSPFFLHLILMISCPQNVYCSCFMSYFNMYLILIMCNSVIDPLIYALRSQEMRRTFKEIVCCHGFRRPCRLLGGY
UniProt P33033: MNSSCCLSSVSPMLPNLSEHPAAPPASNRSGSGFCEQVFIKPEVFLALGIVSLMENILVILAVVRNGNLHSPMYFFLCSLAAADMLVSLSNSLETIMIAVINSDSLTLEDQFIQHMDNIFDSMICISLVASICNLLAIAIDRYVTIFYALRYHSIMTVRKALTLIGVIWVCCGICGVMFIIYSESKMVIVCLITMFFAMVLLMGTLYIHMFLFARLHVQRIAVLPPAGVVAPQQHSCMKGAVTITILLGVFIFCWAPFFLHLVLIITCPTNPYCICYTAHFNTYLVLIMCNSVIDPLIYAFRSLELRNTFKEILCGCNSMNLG
UniProt P56450, whole entry: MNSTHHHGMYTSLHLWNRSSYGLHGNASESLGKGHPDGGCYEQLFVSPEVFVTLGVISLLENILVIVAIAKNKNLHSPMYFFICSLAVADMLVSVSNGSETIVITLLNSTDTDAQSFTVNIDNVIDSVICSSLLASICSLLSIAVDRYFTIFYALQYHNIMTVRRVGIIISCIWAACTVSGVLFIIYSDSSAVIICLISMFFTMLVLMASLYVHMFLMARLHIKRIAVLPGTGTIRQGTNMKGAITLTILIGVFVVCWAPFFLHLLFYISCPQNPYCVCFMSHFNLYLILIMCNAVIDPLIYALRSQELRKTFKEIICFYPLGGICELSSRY

Legend:
Type in all cases: functional, cell-based
[1] = target: Melanocortin receptor 5 (Mus musculus) (UniProt P41149); experiment: Agonist activity at mouse MC5R expressed in HEK293 cells assessed as cAMP accumulation incubated for 2 hrs by alphascreen assay relative to Ac-His-DPhe-Arg-Trp-NH2
[2] = target: Melanocortin receptor 3 (Mus musculus) (UniProt P33033); experiment: Agonist activity at mouse MC3R expressed in HEK293 cells assessed as cAMP accumulation incubated for 2 hrs by alphascreen assay relative to Ac-His-DPhe-Arg-Trp-NH2
[3] = target: Melanocortin receptor 4 (Mus musculus) (UniProt P56450); experiment: Agonist activity at mouse MC4R expressed in HEK293 cells assessed as cAMP accumulation at 100 uM incubated for 2 hrs by alphascreen assay

CC(=O)N[C@@H](Cc1cnc[nH]1)C(=O)N[C@H](Cc1ccccc1)C(=O)N[C@@H](CCCNC(=N)N)C(=O)N[C@@H](Cc1c[nH]c2ccccc12)C(=O)NCCCOCCOCCOCCCNC(=O)COCC(=O)NCCCOCCOCCOCCCNC(=O)COCC(=O)N[C@@H](Cc1cnc[nH]1)C(=O)N[C@H](Cc1ccccc1)C(=O)N[C@@H](CCCNC(=N)N)C(=O)N[C@@H](Cc1c[nH]c2ccccc12)C(N)=O
Ratio EC50 [1]: 2
Ratio EC50 [2]: 2

CC(=O)N[C@@H](Cc1c[nH]cn1)C(=O)N[C@H](Cc1ccc2ccccc2c1)C(=O)N[C@@H](CCCN=C(N)N)C(=O)N[C@@H](Cc1c[nH]c2ccccc12)C(N)=O
Activity [3]: 40%
